Test results published in BindingDB's records for doi:10.1021/bi1013479 (University of California Irvine, 2010).
pKi: −log10 of the molar value.

The chains behind the UniProt entries cited, without tags or fusion partners.
UniProt P29475, whole entry: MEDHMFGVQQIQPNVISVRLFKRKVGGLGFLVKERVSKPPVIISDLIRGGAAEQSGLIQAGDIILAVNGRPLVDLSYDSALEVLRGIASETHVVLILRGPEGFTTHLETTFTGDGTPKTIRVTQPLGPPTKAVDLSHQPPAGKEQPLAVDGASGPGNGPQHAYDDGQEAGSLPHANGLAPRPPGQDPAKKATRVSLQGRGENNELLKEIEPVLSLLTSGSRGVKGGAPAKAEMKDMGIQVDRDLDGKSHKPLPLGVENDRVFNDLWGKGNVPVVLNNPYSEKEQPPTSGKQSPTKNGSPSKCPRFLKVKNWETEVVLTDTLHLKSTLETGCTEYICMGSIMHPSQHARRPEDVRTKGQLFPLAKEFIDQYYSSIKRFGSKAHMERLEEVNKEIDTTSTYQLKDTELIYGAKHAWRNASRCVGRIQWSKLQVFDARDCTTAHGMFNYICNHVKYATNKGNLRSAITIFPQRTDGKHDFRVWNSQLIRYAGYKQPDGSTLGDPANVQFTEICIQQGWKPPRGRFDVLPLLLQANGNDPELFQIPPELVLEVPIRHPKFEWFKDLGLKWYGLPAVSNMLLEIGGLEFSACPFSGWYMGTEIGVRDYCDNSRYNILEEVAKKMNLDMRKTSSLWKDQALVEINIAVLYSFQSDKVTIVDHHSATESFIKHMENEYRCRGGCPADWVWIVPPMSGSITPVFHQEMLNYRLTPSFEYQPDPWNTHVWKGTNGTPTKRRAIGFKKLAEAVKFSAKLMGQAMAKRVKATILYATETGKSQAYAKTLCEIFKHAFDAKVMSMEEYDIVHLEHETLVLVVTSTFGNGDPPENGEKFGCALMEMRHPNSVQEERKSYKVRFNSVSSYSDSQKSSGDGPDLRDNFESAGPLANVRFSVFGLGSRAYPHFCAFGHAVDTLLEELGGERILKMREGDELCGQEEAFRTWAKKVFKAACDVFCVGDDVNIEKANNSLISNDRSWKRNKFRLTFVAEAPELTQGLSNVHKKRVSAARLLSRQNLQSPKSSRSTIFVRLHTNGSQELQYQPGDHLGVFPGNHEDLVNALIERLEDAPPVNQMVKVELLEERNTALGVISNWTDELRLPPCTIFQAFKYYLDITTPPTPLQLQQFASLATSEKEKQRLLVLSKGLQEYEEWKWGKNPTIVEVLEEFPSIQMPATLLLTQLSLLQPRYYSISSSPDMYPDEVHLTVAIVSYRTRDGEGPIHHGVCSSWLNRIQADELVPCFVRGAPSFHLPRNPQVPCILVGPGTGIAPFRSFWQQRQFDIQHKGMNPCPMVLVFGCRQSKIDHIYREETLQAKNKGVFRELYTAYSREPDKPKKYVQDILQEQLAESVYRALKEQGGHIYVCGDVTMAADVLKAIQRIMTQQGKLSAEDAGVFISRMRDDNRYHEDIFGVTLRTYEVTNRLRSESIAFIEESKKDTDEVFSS

Molecular target: Nitric oxide synthase, brain (Homo sapiens, UniProt P29475)
Test: Inhibitory Assay
Text: Inhibition assay using nitric oxide synthases.

Row | pKi | SMILES
1 | 7.42 | Cc1cc(N)nc(CCc2cccc(CCc3cc(C)cc(N)n3)c2)c1 [NOS Inhibitor, 3h]
2 | 7.60 | Cc1cc(N)nc(CCc2cncc(CCc3cc(C)cc(N)n3)c2)c1 [NOS Inhibitor, 3j]
